# CycPeptMPDB entries from one study

Collected by the curators of CycPeptMPDB (Li et al. 2023) from Townsend et al. 2020, doi:10.26434/chemrxiv.13335941.v1.

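Lipid, pH, incubation time, direction and concentration are not recorded in the data file. Other peptides of the study may be missing here. Entries at the database's floor value (log10 P of -10) are not listed.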

PAMPA measures passive passage through an artificial lipid membrane. Values are log10 P with P in cm/s, so -5 is more permeable than -7.

CC(C)C[C@@H]1C(=O)N[C@@H](Cc2ccccc2)C(=O)N2CCC[C@H]2C(=O)N[C@H](C)C(=O)N[C@H](CC(C)C)C(=O)N(C)[C@@H](CC(C)C)C(=O)N2CCC[C@H]2C(=O)N1C is reported with PAMPA -6.09 (log10 cm/s).
CC(C)C[C@@H]1NC(=O)[C@@H](C)N(C)C(=O)[C@@H]2CCCN2C(=O)[C@H](Cc2ccccc2)NC(=O)[C@@H](CC(C)C)NC(=O)[C@@H]2CCCN2C(=O)[C@H](CC(C)C)N(C)C1=O is reported with PAMPA -6.78 (log10 cm/s).
CC(C)C[C@@H]1NC(=O)[C@@H](C)N(C)C(=O)[C@H](Cc2ccccc2)NC(=O)[C@@H](CC(C)C)N(C)C(=O)[C@H]2CCCN2C(=O)[C@@H](CC(C)C)NC1=O is reported with PAMPA -5.52 (log10 cm/s).
CCCN1CC(=O)N(C)[C@H](CC(C)C)C(=O)N[C@@H](CC(C)C)C(=O)N2CCC[C@@H]2C(=O)N(C)[C@H](CC(C)C)C(=O)N[C@@H](Cc2ccccc2)C1=O is reported with PAMPA -4.96 (log10 cm/s).
CC(C)C[C@@H]1NC(=O)[C@@H](CC(C)C)NC(=O)[C@@H](C)N(C)C(=O)[C@H](Cc2ccccc2)NC(=O)[C@@H](CC(C)C)N(C)C(=O)[C@@H]2CCCN2C1=O is reported with PAMPA -5.16 (log10 cm/s).
CCCN1CC(=O)N(C)[C@H](CC(C)C)C(=O)N[C@H](CC(C)C)C(=O)N2CCC[C@H]2C(=O)N(C)[C@H](CC(C)C)C(=O)N[C@@H](Cc2ccccc2)C1=O is reported with PAMPA -4.82 (log10 cm/s).
CC(C)C[C@@H]1C(=O)N(C)[C@H](CC(C)C)C(=O)N2CCC[C@@H]2C(=O)N[C@H](CC(C)C)C(=O)N[C@@H](Cc2ccccc2)C(=O)N2CCC[C@H]2C(=O)N[C@@H](C)C(=O)N1C is reported with PAMPA -5.31 (log10 cm/s).
CC(C)C[C@H]1NC(=O)[C@H](CC(C)C)N(C)C(=O)[C@@H](C)NC(=O)[C@H](Cc2ccccc2)NC(=O)CN(Cc2ccccc2)C(=O)[C@H]2CCCN2C1=O is reported with PAMPA -5.48 (log10 cm/s).
CC(C)C[C@@H]1C(=O)N2CCC[C@H]2C(=O)N[C@H](CC(C)C)C(=O)N[C@@H](Cc2ccccc2)C(=O)N2CCC[C@H]2C(=O)N(C)[C@H](C)C(=O)N[C@H](CC(C)C)C(=O)N1C is reported with PAMPA -5.67 (log10 cm/s).
CC(C)C[C@@H]1NC(=O)[C@@H]2CCCN2C(=O)[C@@H](CC(C)C)N(C)C(=O)CN(Cc2ccccc2)C(=O)[C@H](C)N(C)C(=O)[C@H]2CCCN2C(=O)[C@H](Cc2ccccc2)NC1=O is reported with PAMPA -5.97 (log10 cm/s).
CC(C)C[C@@H]1NC(=O)[C@@H](C)NC(=O)[C@H](Cc2ccccc2)NC(=O)[C@@H](CC(C)C)NC(=O)[C@H]2CCCN2C(=O)[C@@H](CC(C)C)NC1=O is reported with PAMPA -6.34 (log10 cm/s).
CC(C)C[C@@H]1NC(=O)[C@@H]2CCCN2C(=O)C[C@H](Cc2ccccc2)NC(=O)[C@@H](CC(C)C)NC(=O)C[C@H](Cc2ccccc2)NC(=O)[C@H]2CCCN2C(=O)[C@H](Cc2ccccc2)NC1=O is reported with PAMPA -5.90 (log10 cm/s).
CC(C)C[C@@H]1C(=O)N[C@H](CC(C)C)C(=O)N2CCC[C@H]2C(=O)N(C)[C@H](CC(C)C)C(=O)N[C@@H](Cc2ccccc2)C(=O)N2CCC[C@H]2C(=O)N(C)[C@@H](C)C(=O)N1C is reported with PAMPA -5.05 (log10 cm/s).
CC(C)C[C@H]1NC(=O)[C@H](C)N(C)C(=O)[C@H](Cc2ccccc2)NC(=O)CN(Cc2ccccc2)C(=O)[C@@H]2CCCN2C(=O)CN(Cc2ccccc2)C1=O is reported with PAMPA -5.48 (log10 cm/s).
CC(C)C[C@H]1C(=O)N[C@@H](Cc2ccccc2)C(=O)N2CCC[C@H]2C(=O)N(C)[C@@H](C)C(=O)N(C)[C@@H](CC(C)C)C(=O)N(Cc2ccccc2)CC(=O)N2CCC[C@@H]2C(=O)N1C is reported with PAMPA -5.03 (log10 cm/s).
CC(C)C[C@@H]1NC(=O)[C@@H](C)NC(=O)[C@H](Cc2ccccc2)NC(=O)[C@@H](CC(C)C)N(C)C(=O)[C@@H]2CCCN2C(=O)[C@H](CC(C)C)N(C)C1=O is reported with PAMPA -6.47 (log10 cm/s).
CC(C)C[C@@H]1C(=O)N[C@@H](Cc2ccccc2)C(=O)N2CCC[C@@H]2C(=O)N(C)[C@H](C)C(=O)N(C)[C@@H](CC(C)C)C(=O)N(C)[C@H](CC(C)C)C(=O)N2CCC[C@@H]2C(=O)N1C is reported with PAMPA -6.19 (log10 cm/s).
CC(C)C[C@@H]1NC(=O)[C@H](C)NC(=O)[C@H](Cc2ccccc2)NC(=O)[C@@H](CC(C)C)N(C)C(=O)[C@@H]2CCCN2C(=O)C[C@H](Cc2ccccc2)NC1=O is reported with PAMPA -6.22 (log10 cm/s).
CC(C)C[C@@H]1NC(=O)[C@H](C)NC(=O)[C@H](Cc2ccccc2)NC(=O)[C@@H](CC(C)C)N(C)C(=O)[C@H]2CCCN2C(=O)C[C@H](Cc2ccccc2)NC1=O is reported with PAMPA -5.99 (log10 cm/s).
CC(C)C[C@@H]1C(=O)N[C@H](CC(C)C)C(=O)N2CCC[C@@H]2C(=O)N(Cc2ccccc2)CC(=O)N[C@@H](Cc2ccccc2)C(=O)N2CCC[C@@H]2C(=O)N(C)[C@@H](C)C(=O)N1C is reported with PAMPA -5.72 (log10 cm/s).
CC(C)C[C@@H]1C(=O)N2CCC[C@H]2C(=O)N(Cc2ccccc2)CC(=O)N[C@@H](Cc2ccccc2)C(=O)N2CCC[C@H]2C(=O)N(C)[C@@H](C)C(=O)N(C)[C@@H](CC(C)C)C(=O)N1C is reported with PAMPA -5.48 (log10 cm/s).
CCCN1CC(=O)N(C)[C@H](CC(C)C)C(=O)N(C)[C@H](CC(C)C)C(=O)N2CCC[C@H]2C(=O)N(C)[C@H](CC(C)C)C(=O)N[C@@H](Cc2ccccc2)C(=O)N2CCC[C@H]2C1=O is reported with PAMPA -5.42 (log10 cm/s).
CCCN1CC(=O)N(C)[C@H](CC(C)C)C(=O)N(C)[C@@H](CC(C)C)C(=O)N2CCC[C@H]2C(=O)N[C@H](CC(C)C)C(=O)N[C@@H](Cc2ccccc2)C1=O is reported with PAMPA -5.37 (log10 cm/s).
CC(C)C[C@@H]1NC(=O)[C@H]2CCCN2C(=O)[C@@H](CC(C)C)NC(=O)[C@@H](CC(C)C)NC(=O)[C@@H](C)NC(=O)[C@H]2CCCN2C(=O)[C@H](Cc2ccccc2)NC1=O is reported with PAMPA -6.96 (log10 cm/s).

Repeated from above, the 2 entries with the highest PAMPA:

{"smiles": "CCCN1CC(=O)N(C)[C@H](CC(C)C)C(=O)N[C@H](CC(C)C)C(=O)N2CCC[C@H]2C(=O)N(C)[C@H](CC(C)C)C(=O)N[C@@H](Cc2ccccc2)C1=O", "PAMPA (log10 cm/s)": "-4.82"}
{"smiles": "CCCN1CC(=O)N(C)[C@H](CC(C)C)C(=O)N[C@@H](CC(C)C)C(=O)N2CCC[C@@H]2C(=O)N(C)[C@H](CC(C)C)C(=O)N[C@@H](Cc2ccccc2)C1=O", "PAMPA (log10 cm/s)": "-4.96"}